Assays:
[1] = biological target: T1, RARα (Homo sapiens, UniProt P10276); assay: Ligand binding assay, RARα
T1 construct: made in house; host or cells: Baculovirus expression (insect cell extract)
Method: (§1) All binding assays were performed in a similar fashion. All six receptor types were derived from the expressed receptor type (RARα, β, Γ and RXRα, β, Γ) expressed in Baculovirus. Stock solutions of all compounds were prepared as 10 mM ethanol solutions and serial dilutions carried out into 1:1 DMSO; ethanol. Assay buffers consisted of the following for all six receptor assays: 8% glycerol, 120 mM KCl 8 mM Tris, 5 mM CHAPS 4 mM DTT and 0.24 mM PMSF, pH-7.4@ room temperature.
(§2) All receptor binding assays were performed in the same manner. The final assay volume was 250 μl and contained from 10-40 μg of extract protein depending on receptor being assayed along with 5 nM of [^3H] all-trans retinoic acid or 10 nM [^3H] 9-cis retinoic acid and varying concentrations of competing ligand at concentrations that ranged from 0-10^−5 M. The assays were formatted for a 96 well minitube system. Incubations were carried out at 4° C. until equilibrium was achieved. […] The amount of receptor-ligand complex was determined by liquid scintillation counting of hydroxyapitite pellet.
(§3) After correcting for non-specific binding, IC50 values were determined. […] The IC50 value was determined graphically from a loglogit plot of the data. The […] were determined by application of the Cheng-Prussof equation to the IC50 values, the labeled ligand concentration and the Kd of the labeled ligand. […]

By UniProt entry, the sequences of proteins in these tests, tags left out.
UniProt P10276, whole entry, species assumed: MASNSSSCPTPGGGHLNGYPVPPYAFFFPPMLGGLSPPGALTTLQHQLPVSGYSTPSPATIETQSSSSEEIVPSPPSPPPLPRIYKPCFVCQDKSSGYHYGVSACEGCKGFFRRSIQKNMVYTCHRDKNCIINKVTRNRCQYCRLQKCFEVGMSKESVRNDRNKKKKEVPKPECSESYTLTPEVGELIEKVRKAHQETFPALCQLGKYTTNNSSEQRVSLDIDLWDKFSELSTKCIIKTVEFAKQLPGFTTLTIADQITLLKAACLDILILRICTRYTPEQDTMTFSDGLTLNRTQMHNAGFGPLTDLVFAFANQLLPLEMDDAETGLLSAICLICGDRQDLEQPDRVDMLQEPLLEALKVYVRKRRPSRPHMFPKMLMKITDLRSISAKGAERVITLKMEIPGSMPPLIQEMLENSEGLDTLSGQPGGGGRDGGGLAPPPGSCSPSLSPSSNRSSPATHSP
UniProt P10826, whole entry, species assumed: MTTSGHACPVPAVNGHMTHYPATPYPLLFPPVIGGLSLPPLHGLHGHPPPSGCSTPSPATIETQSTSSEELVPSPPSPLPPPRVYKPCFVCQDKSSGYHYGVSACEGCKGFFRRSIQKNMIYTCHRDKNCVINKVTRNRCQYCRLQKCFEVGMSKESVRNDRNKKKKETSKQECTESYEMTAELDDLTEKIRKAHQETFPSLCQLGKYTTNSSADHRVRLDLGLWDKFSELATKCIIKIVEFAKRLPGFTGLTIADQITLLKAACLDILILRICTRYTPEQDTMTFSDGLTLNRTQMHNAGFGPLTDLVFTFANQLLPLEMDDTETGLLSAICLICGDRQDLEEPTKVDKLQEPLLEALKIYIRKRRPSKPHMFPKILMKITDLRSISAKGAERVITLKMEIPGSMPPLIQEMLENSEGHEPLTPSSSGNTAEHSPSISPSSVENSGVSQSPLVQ
UniProt P13631, whole entry, species assumed: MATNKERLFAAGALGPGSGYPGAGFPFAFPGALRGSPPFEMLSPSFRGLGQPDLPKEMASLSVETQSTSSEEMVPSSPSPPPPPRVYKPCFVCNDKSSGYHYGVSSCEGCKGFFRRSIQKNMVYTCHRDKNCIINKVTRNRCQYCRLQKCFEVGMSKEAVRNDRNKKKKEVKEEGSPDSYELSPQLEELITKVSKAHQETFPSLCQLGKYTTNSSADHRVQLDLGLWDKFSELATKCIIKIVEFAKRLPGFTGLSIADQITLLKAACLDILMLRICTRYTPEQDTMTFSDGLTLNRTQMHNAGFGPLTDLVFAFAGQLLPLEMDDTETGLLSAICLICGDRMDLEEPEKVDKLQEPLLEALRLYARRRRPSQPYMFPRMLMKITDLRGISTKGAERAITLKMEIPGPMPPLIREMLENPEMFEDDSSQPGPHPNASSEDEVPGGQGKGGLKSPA

[2] = biological target: T2, RARβ (Homo sapiens, UniProt P10826); assay: Ligand binding assay, RARβ
T2 construct: made in house; host or cells: Baculovirus expression (insect cell extract)
Method: as §1, §2, §3

[3] = biological target: T3, RARΓ (Homo sapiens, UniProt P13631); assay: Ligand binding assay, RARΓ
T3 construct: made in house; host or cells: Baculovirus expression (insect cell extract)
Method: as §1, §2, §3

Question: Which Kd [1] does the source give for “2-Fluoro-4-[(3′,5′-di-t-butyl)phenylcarbamoyl]benzoic acid [Compound 46]” here?
Answer: 26 nM

Question: And the Kd [2]?
Answer: > 1000 nM

Question: And the Kd [3]?
Answer: > 1000 nM

— patent publication US6610744B2, “Methods of treatment with compounds having RARα receptor specific or selective activity” (Allergan, Inc., priority 1995, dated 2003)
